Source: patent publication US7893266B2, “Detection of cancer cells in vitro using sigma-2 receptor ligands as radiotracers” (Washington University, priority 2003, dated 2011)

System: EMT-6 mammary tumors
Assay: Comparison with [18F]FLT in tumor-bearing mice
Details: [18F]FLT at 1 hr, FIG. 9 top graph

uptake in tumors: high uptake in tumors
Substance: (18)F-3′-fluoro-3′-deoxy-L-thymidine [[^18F]FLT, reference compound]
